Assay results reported in patent US7183394B1, “Helical nucleopeptides” (priority 2000, dated 2007).

Assays:
[1] = test system: d(TA3G5A3T); assay: Gel shift assay with d(TA3G5A3T)
[2] = test system: d(A3GGAGGA3); assay: Gel shift assay with d(A3GGAGGA3); details: DNA 40 μM, TE-buffer, nondenaturing 14% PAGE at 4° C.

Row | Substance | binding in gel shift assay [1] | αPNA/DNA ratio at which there was no unbound single-stranded DNA [2]
1 | Ac-Cys^Acm-Lys-(Ser-Ala2-Lys)4-Ser-Gly-Lys-NH2 | No binding was observed | 
2 | Ac-Cys^Acm-Lys-(Ser^C-Ala2-Lys)2-Ser^T-(Ala2-Lys-Ser^C)2-Gly-Lys-NH2 |  | 1.5
